Test results taken from PMC3139667, “A Screen against Leishmania Intracellular Amastigotes: Comparison to a Promastigote Screen and Identification of a Host Cell-Specific Hit” (PLoS Neglected Tropical Diseases, 2011).

Tested on: THP-1
Test: Host cell toxicity: THP-1 host nuclei counts in the image-based assay
Settings: ratio between parasite GI50 and THP-1 GI50

Structure (SMILES): Oc1c(Cl)cc(Cl)c(Cl)c1Cc1c(O)c(Cl)cc(Cl)c1Cl [Hexachlorophene]
- Selectivity: 3.62
